Data set [1] has as its system Mus musculus. Put plainly: Analgesic activity in sc dosed mouse by D'Amour-Smith method.
The test system of data set [2] is Mus musculus. The experiment in a line: Toxicity in mouse at >160 mg/kg, sc. Conditions: in vivo.

From ChEMBL document CHEMBL3244374, “Studies on 1-substituted 4-(1,2-diphenylethyl)piperazine derivatives and their analgesic activities. 2. Structure-activity relationships of 1-cycloalkyl-4-(1,2-diphenylethyl)piperazines” (1978) come the findings set out here.

By ED50 is commonly meant the dose that gives a 50% effect, or the effect in half of the subjects. The low end stands for greater potency, the high end for weaker potency.

In the case of `COc1cccc(CC(N)c2ccccc2)c1.Cl` (centres undefined), the ED50 with Mus musculus [1] is > 320 mg/kg.
On the same count and under the same terms, in the case of `COc1cccc(CC(c2ccccc2)N(CCO)CCO)c1.Cl` (centres undefined) it was > 320 mg/kg.
Turning to `COc1ccccc1C(Cc1ccccc1)N(CCO)CCO.Cl` (centres undefined), in the data set with Mus musculus [2], the Activity entry is recorded as “Toxic”.
Regarding `Cl.NC(Cc1cccc(O)c1)c1ccccc1` (centres undefined), the 50% effective dose (ED50) with Mus musculus [1] is > 320 mg/kg.
